Measured values as given in US20240024488A1, “COMPOUNDS AND USES THEREOF” (Foghorn Therapeutics Inc., priority 2020, published 2024).

Amino acid sequences for entries named in this document (tags omitted).
UniProt P51531, whole entry: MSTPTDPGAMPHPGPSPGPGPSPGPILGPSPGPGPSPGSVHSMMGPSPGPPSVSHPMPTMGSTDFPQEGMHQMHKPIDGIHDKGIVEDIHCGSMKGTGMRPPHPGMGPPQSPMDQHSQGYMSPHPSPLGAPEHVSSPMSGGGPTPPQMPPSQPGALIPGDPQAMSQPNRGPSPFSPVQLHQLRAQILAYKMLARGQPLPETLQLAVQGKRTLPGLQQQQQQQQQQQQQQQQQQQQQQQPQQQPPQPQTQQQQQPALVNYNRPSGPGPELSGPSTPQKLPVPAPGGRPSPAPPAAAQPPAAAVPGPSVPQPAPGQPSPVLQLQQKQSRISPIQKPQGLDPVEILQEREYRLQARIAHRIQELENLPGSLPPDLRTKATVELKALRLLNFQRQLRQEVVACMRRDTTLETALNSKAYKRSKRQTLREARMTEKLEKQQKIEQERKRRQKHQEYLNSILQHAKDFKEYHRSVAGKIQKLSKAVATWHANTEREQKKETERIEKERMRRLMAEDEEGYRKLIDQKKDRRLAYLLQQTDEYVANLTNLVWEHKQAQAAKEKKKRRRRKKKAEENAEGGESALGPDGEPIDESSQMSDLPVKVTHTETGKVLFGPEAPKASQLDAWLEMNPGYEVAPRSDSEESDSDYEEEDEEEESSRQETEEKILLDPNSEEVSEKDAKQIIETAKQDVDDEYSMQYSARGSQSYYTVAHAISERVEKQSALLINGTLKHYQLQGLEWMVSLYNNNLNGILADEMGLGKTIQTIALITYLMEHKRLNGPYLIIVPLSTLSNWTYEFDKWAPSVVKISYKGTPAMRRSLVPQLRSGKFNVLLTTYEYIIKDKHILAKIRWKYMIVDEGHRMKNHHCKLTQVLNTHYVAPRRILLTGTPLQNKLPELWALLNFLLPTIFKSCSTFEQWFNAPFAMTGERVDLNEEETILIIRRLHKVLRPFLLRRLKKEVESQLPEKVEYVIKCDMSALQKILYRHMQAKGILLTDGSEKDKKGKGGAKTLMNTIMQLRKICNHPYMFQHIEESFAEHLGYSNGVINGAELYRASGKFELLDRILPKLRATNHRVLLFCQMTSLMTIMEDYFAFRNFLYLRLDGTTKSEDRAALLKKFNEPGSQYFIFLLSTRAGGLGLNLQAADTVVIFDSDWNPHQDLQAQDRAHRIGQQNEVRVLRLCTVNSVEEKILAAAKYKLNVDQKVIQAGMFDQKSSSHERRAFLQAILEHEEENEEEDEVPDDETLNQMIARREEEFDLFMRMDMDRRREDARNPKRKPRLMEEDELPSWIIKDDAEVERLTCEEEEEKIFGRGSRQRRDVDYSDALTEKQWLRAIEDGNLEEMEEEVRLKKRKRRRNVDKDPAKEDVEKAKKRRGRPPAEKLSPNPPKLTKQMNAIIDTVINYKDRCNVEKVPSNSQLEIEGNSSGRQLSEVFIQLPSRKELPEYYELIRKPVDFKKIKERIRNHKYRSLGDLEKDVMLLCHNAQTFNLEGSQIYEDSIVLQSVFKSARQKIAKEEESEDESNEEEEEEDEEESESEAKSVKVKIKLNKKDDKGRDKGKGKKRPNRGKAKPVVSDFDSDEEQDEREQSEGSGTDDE
UniProt P51532, whole entry: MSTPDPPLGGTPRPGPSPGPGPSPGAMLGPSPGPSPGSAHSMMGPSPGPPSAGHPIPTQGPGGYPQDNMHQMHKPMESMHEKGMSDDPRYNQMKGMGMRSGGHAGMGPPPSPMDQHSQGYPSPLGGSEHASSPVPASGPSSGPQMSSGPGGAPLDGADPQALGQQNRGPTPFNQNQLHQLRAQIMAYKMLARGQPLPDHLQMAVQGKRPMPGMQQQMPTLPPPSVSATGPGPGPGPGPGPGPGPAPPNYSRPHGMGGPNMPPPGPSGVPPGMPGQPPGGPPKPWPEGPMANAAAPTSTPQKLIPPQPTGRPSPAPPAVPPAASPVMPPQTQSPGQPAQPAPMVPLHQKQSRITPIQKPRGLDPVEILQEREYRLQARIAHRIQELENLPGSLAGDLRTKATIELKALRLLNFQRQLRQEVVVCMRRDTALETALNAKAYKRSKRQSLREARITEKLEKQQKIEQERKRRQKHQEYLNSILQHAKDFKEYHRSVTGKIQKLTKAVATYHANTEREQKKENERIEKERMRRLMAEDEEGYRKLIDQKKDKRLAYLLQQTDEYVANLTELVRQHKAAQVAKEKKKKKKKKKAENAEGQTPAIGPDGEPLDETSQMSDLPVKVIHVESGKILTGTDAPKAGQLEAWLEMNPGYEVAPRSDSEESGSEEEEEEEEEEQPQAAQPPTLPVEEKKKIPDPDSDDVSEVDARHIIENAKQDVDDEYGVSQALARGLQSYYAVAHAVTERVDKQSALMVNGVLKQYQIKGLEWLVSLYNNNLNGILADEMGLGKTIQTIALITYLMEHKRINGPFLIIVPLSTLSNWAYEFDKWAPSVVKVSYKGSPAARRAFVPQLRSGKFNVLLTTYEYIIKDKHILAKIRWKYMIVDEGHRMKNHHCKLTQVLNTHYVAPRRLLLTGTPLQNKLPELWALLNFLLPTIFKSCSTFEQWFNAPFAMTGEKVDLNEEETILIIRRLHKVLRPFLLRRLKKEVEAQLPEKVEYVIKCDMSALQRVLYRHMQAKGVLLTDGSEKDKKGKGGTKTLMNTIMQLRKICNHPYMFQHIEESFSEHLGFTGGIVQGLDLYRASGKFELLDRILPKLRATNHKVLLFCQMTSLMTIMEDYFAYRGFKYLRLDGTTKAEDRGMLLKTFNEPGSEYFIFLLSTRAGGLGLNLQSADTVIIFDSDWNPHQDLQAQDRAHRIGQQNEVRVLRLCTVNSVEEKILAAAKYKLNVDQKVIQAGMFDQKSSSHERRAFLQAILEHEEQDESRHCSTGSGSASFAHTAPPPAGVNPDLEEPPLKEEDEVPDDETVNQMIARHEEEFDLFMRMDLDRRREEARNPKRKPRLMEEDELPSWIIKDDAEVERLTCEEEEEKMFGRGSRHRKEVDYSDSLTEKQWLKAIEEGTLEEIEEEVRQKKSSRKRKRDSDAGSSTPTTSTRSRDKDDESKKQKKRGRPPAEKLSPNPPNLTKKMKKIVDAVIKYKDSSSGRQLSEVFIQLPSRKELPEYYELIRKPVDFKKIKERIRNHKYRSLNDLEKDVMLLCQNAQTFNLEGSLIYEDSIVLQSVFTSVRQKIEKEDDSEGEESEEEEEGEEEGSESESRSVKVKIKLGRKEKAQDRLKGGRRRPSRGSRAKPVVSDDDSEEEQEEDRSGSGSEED

What was measured:
HiBit-BRM fusion protein = HiBit-BRM fusion protein (Homo sapiens, UniProt P51531); experiment: HiBiT-BRM cell-based degradation assay (Nano-Glo HiBiT Lytic Detection, 24 h); settings: for BRM HiBit Degradation Maximum (%): HeLa cell line expressing HiBiT-BRM; for IC50: read-out: BRM HiBit Degradation IC50, HeLa cell line expressing HiBiT-BRM
[1] = molecular target: HiBit-BRG1 fusion protein (Homo sapiens, UniProt P51532); experiment: HiBiT-BRG1 cell-based degradation assay (Nano-Glo HiBiT Lytic Detection, 24 h); settings: for BRG1 HiBit Degradation Maximum (%): HeLa cell line expressing HiBit-BRG1 and LgBit; for IC50: read-out: BRMG1 HiBit Degradation IC50, HeLa cell line expressing HiBit-BRG1 and LgBit

| IC50 (HiBit-BRM fusion protein) [nM] | SMILES | BRM HiBit Degradation Maximum (%) (HiBit-BRM fusion protein) | BRG1 HiBit Degradation Maximum (%) [1] | IC50 [1] [nM] |
| --- | --- | --- | --- | --- |
| > 100 | Cc1ncsc1-c1ccc([C@H](C)NC(=O)[C@@H]2C[C@@H](O)CN2C(=O)[C@@H](c2cc(N3CCC(N[C@H]4CCc5[nH]c6nnc(-c7ccccc7O)cc6c5C4)CC3)no2)C(C)C)cc1 | A (“A” indicates maximum degradation ≥ 75%) | B (“B” indicates maximum degradation ≥ 50%) | > 100 |
| > 100 | Cc1ncsc1-c1ccc([C@H](C)NC(=O)[C@@H]2C[C@@H](O)CN2C(=O)[C@@H](c2cc(N3CCC(N[C@@H]4CCc5[nH]c6nnc(-c7ccccc7O)cc6c5C4)CC3)no2)C(C)C)cc1 | A (“A” indicates maximum degradation ≥ 75%) | C (“C” indicates maximum degradation < 50%) |  |

| SMILES | IC50 (HiBit-BRM fusion protein) [nM] | BRM HiBit Degradation Maximum (%) (HiBit-BRM fusion protein) | BRG1 HiBit Degradation Maximum (%) [1] | IC50 [1] [nM] |
| --- | --- | --- | --- | --- |
| Cc1ncsc1-c1ccc([C@H](C)NC(=O)[C@@H]2C[C@@H](O)CN2C(=O)[C@@H](c2cc(OCCN3C[C@H]4C[C@H](c5c(C)[nH]c6nnc(-c7ccccc7O)cc56)C[C@H]4C3)no2)C(C)C)cc1 | < 10 | A (“A” indicates maximum degradation ≥ 75%) | B (“B” indicates maximum degradation ≥ 50%) | > 10 |
